Laboratory results as given in patent publication US12559733B2, “Optimization of type IV BRAF inhibitors for the treatment of melanoma” (UNIVERSITY OF SOUTH CAROLINA, priority 2020, dated 2026).

Assay: Parallel artificial membrane permeability assay (PAMPA)
Type: in vitro ADME
Conditions: phospholipid and dodecane artificial membrane, mass spectroscopy
Protocol: A parallel artificial membrane permeability assay (PAMPA) was carried out using phospholipid and dodecane as the artificial membrane.

65 (KR; MOD_RES (2)..(2) N-methylated arginine) [compound 65]
passive permeability: no detectable trace of passive permeability
